Binding of CDR-mutated scFvs to a peptide of the spike HR2 region

Data: MIT Lincoln Laboratory AlphaSeq set, Li et al. 2023, doi:10.1038/s41467-023-39022-2, as distributed in FLAb.

The target is the same throughout: PDVDLGDISGINAS, from the HR2 region of SARS-CoV-2 spike.

Ab-14 is the parent antibody, in scFv form: VH, then a 15-residue (Gly4Ser)3 linker, then VL. The heavy chain is unchanged in all variants.
VH: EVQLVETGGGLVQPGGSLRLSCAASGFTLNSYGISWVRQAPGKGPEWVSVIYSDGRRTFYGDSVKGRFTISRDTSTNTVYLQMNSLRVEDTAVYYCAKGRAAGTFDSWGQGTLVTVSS
VL: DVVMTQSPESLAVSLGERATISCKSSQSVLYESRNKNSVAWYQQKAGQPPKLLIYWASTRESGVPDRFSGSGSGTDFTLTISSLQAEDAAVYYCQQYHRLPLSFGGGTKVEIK

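Phage display of a naive human antibody library on the peptide gave the parent. Designed CDR sequences, proposed from the first random library and measured here. Group labels follow the data file (Ctrl: baseline library sampled from a position-specific scoring matrix, with some repeated check sequences; En: ensemble of fine-tuned language models; GP: Gaussian process model; GPLM: also part of the Gaussian process libraries; HC: hill climbing; Gen: genetic algorithm; Gibbs: Gibbs sampling; a sequence that several methods proposed may carry one label only). Affinity was read by AlphaSeq, a pooled yeast mating assay with surface-displayed partners. The frequency of each diploid, read from paired DNA barcodes, reflects how well the two displayed proteins bind. Scores were corrected for input abundance and mapped to Kd with protein pairs of known affinity run in the same pool. Mating was done six times.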

Each variant is given by its three light chain CDRs, as the data file delimits them; those of the parent are KSSQSVLYESRNKNSVA, WASTRES, QQYHRLPLS. Affinities are written as log10 Kd with Kd in nM; a lower number is a better binder. Replicates are averaged; those with no signal do not enter the mean. A pair that was not seen in any replicate is written "no signal"; this usually means weak binding, but a binder can also be missed.

CDR-L1,CDR-L2,CDR-L3,group,"log10 Kd (nM), mean",replicates with signal,empty controls
KLSSVTGTEKVKGNNVA,EMETRER,QQYNRLPLA,En_Gen,0.00,6 of 6,1 of 18
NFSQMVLTGSTLKNSVA,HASEREE,QQYHRLPLI,En_HC,1.67,6 of 6,0 of 18
NLSWKQIGQNMESMAVA,GTEQRNA,QQYARLPIS,En_Gibbs,0.98,6 of 6,2 of 18
KLSQSVRMESFNKNNVA,ENSTREA,QDYHRLPLS,En_HC,2.07,6 of 6,3 of 18
KISMLYNMTFEASNNVA,EMVTREK,QQYNRLPLS,En_Gen,1.22,6 of 6,0 of 18
KVSQSVLQESRNKNSVA,DASTRES,QQYHRLPLS,GP_HC,-0.26,6 of 6,0 of 18
HMSQVTMYGYWNKNSVA,QTSTREE,QQYDRLPLI,En_HC,3.00,6 of 6,0 of 18
HISQMWMLESRNLNNVA,EESTRED,QSYFRLPLS,En_HC,0.26,6 of 6,1 of 18
KLDNSTNYESRQKNSVA,WASTRES,QQYHRLPLS,GP_HC,0.88,6 of 6,3 of 18
KSSQSVLMESRNANSVA,DASTRES,QQYHRLPLS,GP_HC,0.60,6 of 6,0 of 18
KMQQSEGMESRNVNSVA,HASQRLE,QQYHRLPLS,GP_Gibbs,-0.18,6 of 6,0 of 18
KISGMYQKESKNKNSVA,EMVNREK,QQYDRLPLS,En_HC,0.90,6 of 6,1 of 18
KLRMSTEYESRNKNSVA,WASTRES,QQYHRLPLS,GP_HC,1.78,6 of 6,1 of 18
KFSQSVLNESWNGNSVA,WASTRES,QQYHRLPLS,Ctrl,no signal,0 of 6,1 of 18
KLQQSHLYESRNKNSVA,SASTRES,QQYHRLPLS,GP_Gen,0.07,6 of 6,1 of 18
KLTATMRFEQSKSNNIA,EVTQRSK,QQYARLPLA,En_Gen,0.59,6 of 6,0 of 18
KLSQSVLMESRNANSVA,DASTRES,QQYHRLPLS,GP_HC,-0.17,6 of 6,2 of 18
KSSQSVSYESRNKNSVA,EASTRES,QQYHRLPLS,Ctrl,0.20,6 of 6,1 of 18
KLSQSVEYESRNKNNVA,GASTRES,QQYHRLPLS,GP_Gen,-0.50,6 of 6,1 of 18
HMSAVTMLGSRNRNSVA,QMTTREN,QQYDRLPLA,En_Gen,no signal,0 of 6,0 of 18
HITYGMMVAGRHSSSIA,QAETRAK,QQYDRLPLS,En_Gen,0.74,6 of 6,0 of 18
KITFQMQDSNAMDNSIA,QTNVYHD,QQYGRLPLD,En_Gibbs,1.75,4 of 6,0 of 18
KFSQSKEGVTYEGESIA,GSVTIQE,QQYDRLPLA,En_Gibbs,1.94,3 of 6,0 of 18
KSSQEVDFESRNKNSVA,DASTRES,QQYHRLPLS,GP_HC,-0.37,6 of 6,0 of 18
KLSMSVLMEQRNKNSVA,SANTRME,QQYHRLPLS,GP_Gibbs,0.07,6 of 6,1 of 18
KLSQSVLYESRNANNVA,HASTRES,QQYHRLPLS,GP_Gen,-0.19,6 of 6,1 of 18
KLSQSVLYESRMKNSVA,NASTREW,QQYHRLPLS,GP_Gen,0.34,6 of 6,0 of 18
RITEQYFEYMGNCNNVA,EAECKQY,QQYAHLPLL,En_Gibbs,1.69,6 of 6,1 of 18
HLSQSVLYESRNKNSVA,NASTRES,QQYHRLPLS,GPLM_HC,0.03,6 of 6,1 of 18
QIAETNMQVGIGANAIA,NATVRPA,QQYLRLPLM,En_Gibbs,0.45,6 of 6,1 of 18
KSSQSVLYESSNKNSVA,WASTRMS,QQYHRLPLS,Ctrl,1.81,6 of 6,3 of 18
KSLQSDLYESRNKNSVA,HASTREQ,QQYHRLPLS,GP_HC,0.17,6 of 6,1 of 18
KVSESELYESRNKNSVA,NASTRES,QQYHRLPLS,GP_Gen,-0.08,6 of 6,2 of 18
KLSQSWLYESRNKNSVA,NASQRED,QQYHRLPLS,GP_Gen,0.22,6 of 6,0 of 18
HITDLMYNNNEGMKNIA,DKNISVM,QQYFRLPLI,En_Gibbs,-0.20,6 of 6,1 of 18
KVSQLDLGESRNKNSVA,HAHTRLS,QQYHRLPLS,GP_Gibbs,1.07,6 of 6,1 of 18
HMSAVTMLGMRNRNSVA,QMTTREN,QQYDRLPLA,En_Gen,1.03,6 of 6,0 of 18
HVSSMDMTDGGIKKSVA,DDKETER,QQYMRLPLS,En_Gibbs,2.96,5 of 6,1 of 18
QLHAYTQGFKRIDGNIA,DISYRAI,QQYGRLPLS,En_Gibbs,1.06,6 of 6,0 of 18
KLSGLMSSSKFAKDNVA,ENNTRED,QQYDRLPLS,En_Gen,0.90,6 of 6,0 of 18
MVYQAVMMGTSTRNSIA,NAEMRPD,QQYHRLPLE,En_Gen,1.36,6 of 6,0 of 18
KLHQSVLYESRHKNSVA,GASQRES,QQYHRLPLS,GP_Gibbs,0.90,6 of 6,1 of 18
KSSPSVLYESRNKNSVA,NASTRMS,QQYHRLPLS,GP_HC,0.05,6 of 6,0 of 18
KSSQSVVYEKQNKNSVA,WASTRES,QQYHRLPLS,Ctrl,1.98,6 of 6,1 of 18
KVSEFMKGLMMRKDSIA,DNNTRSN,QQYDRLPLS,En_Gen,2.43,3 of 6,2 of 18
KLPQSAEYQSRNKNSVA,SASTREA,QQYHRLPLS,GP_Gibbs,0.01,6 of 6,0 of 18
KVSISEPYEERNKNSVA,NASVRMS,QQYHRLPLS,GP_Gibbs,-0.03,6 of 6,2 of 18
KSSQSWLYESRNKNSVA,WASTREH,QQYHRLPLF,Ctrl,2.03,1 of 6,0 of 18
KHSQSCLYESRNKNSVA,WASTREQ,QQYHRLPLS,Ctrl,2.35,1 of 6,0 of 18
KLVGVSDNDRNPSHNIA,DVSMVDN,QQYHRLPLD,En_Gibbs,1.54,6 of 6,1 of 18
KFQQKVLYEGRTKNSVA,NASTRES,QQYHRLPLS,GP_HC,0.39,6 of 6,1 of 18
KLEQSGNYESRNKNSVA,NASTRES,QQYHRLPLS,GP_HC,0.15,6 of 6,0 of 18
KVSQSYCYEDRNKNNVA,NASDRMS,QQYHRLPLS,GP_Gibbs,0.39,6 of 6,0 of 18
HSYQSGLYESRNQNSVA,SASMRES,QQYHRLPLS,GP_Gibbs,0.21,6 of 6,3 of 18
KIGMTLNQLLHQKNNVA,DLVERET,QQYHRLPLS,En_Gen,0.05,6 of 6,0 of 18
ALSQSMDMTSRNKNSVA,DLTTRGN,QQYHRLPLS,En_HC,0.19,6 of 6,1 of 18
KMSQAWWYESRNKWSVA,NASLREQ,QQYHRLPLS,GP_Gibbs,0.08,6 of 6,1 of 18
TISQLTSSFSQNINNVA,EVSLREK,QQYDRLPLA,En_Gen,0.77,6 of 6,0 of 18
KFSQSQLYETRNKNSVA,NASQRES,QQYHRLPLS,GP_Gen,-0.24,6 of 6,2 of 18
KLSSSFLYEDRNKNSVA,QASQRES,QQYHRLPLS,GP_Gibbs,-0.22,6 of 6,1 of 18
KSSISNLYESENKNSVA,EASQRES,QQYHRLPLS,GP_HC,0.40,6 of 6,1 of 18
KVEQSSPYESRNKNSVA,NASLRCS,QQYHRLPLS,GP_Gibbs,0.40,6 of 6,0 of 18
KLSQSQLYESRNKNNVA,GASTRES,QQYHRLPLS,GP_Gen,-0.38,6 of 6,0 of 18
ILSQSVLYESRNKNSVA,NASTREQ,QQYHRLPLS,GP_Gen,0.26,6 of 6,0 of 18

A selection of 6 entries from above:

CDR-L1	CDR-L2	CDR-L3	group	log10 Kd (nM), mean	replicates with signal	empty controls
HMSAVTMLGSRNRNSVA	QMTTREN	QQYDRLPLA	En_Gen	no signal	0 of 6	0 of 18
KMQQSEGMESRNVNSVA	HASQRLE	QQYHRLPLS	GP_Gibbs	-0.18	6 of 6	0 of 18
KSSISNLYESENKNSVA	EASQRES	QQYHRLPLS	GP_HC	0.40	6 of 6	1 of 18
HITYGMMVAGRHSSSIA	QAETRAK	QQYDRLPLS	En_Gen	0.74	6 of 6	0 of 18
KLSGLMSSSKFAKDNVA	ENNTRED	QQYDRLPLS	En_Gen	0.90	6 of 6	0 of 18
TISQLTSSFSQNINNVA	EVSLREK	QQYDRLPLA	En_Gen	0.77	6 of 6	0 of 18

Empty control strains, which show no peptide, gave a signal in 4% of pairings with all light chain designs; the median was 2.64 and 95% of these signals were weaker than 1.59. No background was subtracted. Also given: how often the same scFv was detected with the empty control strains. The authors' rule: three or more of the six replicates give a measured affinity, fewer mean a poor binder. The parent sequence was in this pool as ten entries: three were never detected, three once, and four in most replicates, with averages from 0.34 to 2.37. The range of this assay differs from that of the first round, and the authors advise against merging the two.